The numbers were not newly measured in patent US20090062206A1, “Urodilatin Cancer Treatment” (UNIVERSITY OF SOUTH FLORIDA, priority 2006, published 2009), which cites them from elsewhere.

For this data set the following is noted: human, in vivo; cited from earlier work.

Turning to Urodilatin, the side effect hypotension result is given as “observed”.
